Assay results from patent publication US10947271B2, “Antibacterial agents” (THE UNIVERSITY OF QUEENSLAND, priority 2014, dated 2021).

Test: Stability of compounds in human plasma
Details: 50% human plasma/PBS pH 7.4, 37° C.
Description: Briefly test compounds (20 μM) were prepared from a 1 mM stock solution. The human plasma sample (200 μl) was diluted with 160 μl phosphate-buffer saline (PBS, pH 7.4) to a concentration of 50% v/v before use. Solutions were then vortexed and placed on a 37° C. shaker and shaken gently for 10 minutes. 40 μl of the test compounds were then added to the plasma sample and vortexed. For the reaction time t=0 hour, 50 μl of sample was immediately transferred into an eppendorf tube and quenched with 150 μl cold acetonitrile. The remaining plasma solution was incubated and shaken at 37° C. Other samples were collected at time points of 0, 1, 3, 6 and 24 hours whereby 50 μl aliquots were removed and quenched with 150 μl cold acetonitrile. All samples were placed in a 4° C. fridge for 10 minutes then centrifuged at 3000 rpm for 15 minutes. The supernatant (100 μl) was transferred to a glass vial insert for LCMS analysis. The percentage of test compounds remaining at the individual time points relative to sample at time point 0 hour were reported.
Plasma: Human Plasma (Pooled Normal Human Plasma Heparin Anticoagulant 50 mL (IPLA-2 N-04 lot IR09-1001, originally from Innovative Research and imported by BioCore).
All compounds in 100% water (40 μL in 400 μL assay volume equivalent […])
Compounds: 40 μL of the vancomycin derivative solution was added to 160 μL of PBS (pH 7.4) respectively in an Eppendorf tube. 600 μL of cold acetonitrile was added, the tube vortexed and transferred to a glass vial for LC-MS analysis.
Eucatropine: 200 μL of plasma and 190 μL of buffer were vortexed, shaken at 37° C. for 10 minutes. 10 μL of eucatropine solution was then added and the tube vortexed. A 50 μL aliquot was immediately transferred to an Eppendorf tube, 150 μL of cold acetonitrile added and the tube transferred to a 4° C. fridge for 10 minutes. The remaining plasma solution was then transferred to the incubator and shaken at 37° C. The tube was retrieved from the fridge, centrifuged at 3000 rpm for 15 min and 100 μL of supernatant transferred to a glass vial insert for LC-MS analysis. 50 μL aliquots were processed as above at 1, […], 3, 6 and 24 hours and 5 μL was injected into triple quad MS system for analysis. Vancomycin derivatives: 200 μL of plasma and 160 μL of buffer were vortexed and shaken at 37° C. for 10 minutes. 40 μL of compound was then added and the sample was processed as above.

% compound remaining after incubation in 50% human plasma (0 h (reference time point)): 100%
% compound remaining after incubation in 50% human plasma (1 h): 119%
% compound remaining after incubation in 50% human plasma (6 h): 82%
% compound remaining after incubation in 50% human plasma (24 h): 18%
Substance: nC13CO-GSKKKC(SEtNH-Vanc)-OH [MCC_000199, reference compound]
